Measurements as given in BindingDB's records for patent US10821115 (Amgen, 2020).

Chains of the proteins cited; added tags and fusions are not shown. Residues count along the entry.
UniProt Q07820, 171-327: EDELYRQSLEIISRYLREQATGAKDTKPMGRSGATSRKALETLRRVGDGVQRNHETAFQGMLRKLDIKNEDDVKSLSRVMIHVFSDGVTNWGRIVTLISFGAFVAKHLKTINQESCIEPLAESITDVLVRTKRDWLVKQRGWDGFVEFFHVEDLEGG

Biological target: T1, Induced myeloid leukemia cell differentiation protein Mcl-1 [171-327] (Homo sapiens, UniProt Q07820)
T1 construct: 171-327
Assay: Time-Resolved Fluorescence Resonance Energy Transfer (TR-FRET) Assay

For `CO[C@]1(CN2CCN(C(C)C)CC2)/C=C/C[C@H](C)[C@@H](C)S(=O)(=O)NC(=O)c2ccc3c(c2)N(C[C@@H]2CC[C@H]21)C[C@@]1(CCCc2cc(Cl)ccc21)CO3` [US10821115, Example 5], the IC50 was 98 pM.
In the case of `COC(=O)[C@H](NC(=O)C[C@]1(OC)/C=C/C[C@H](C)[C@@H](C)S(=O)(=O)NC(=O)c2ccc3c(c2)N(C[C@@H]2CC[C@H]21)C[C@@]1(CCCc2cc(Cl)ccc21)CO3)C(C)=O` [US10821115, Example 100582], the IC50 is reported as 197 pM.
